Target: T1, proteinase (trypsin) (Bos taurus, UniProt P00760)
T1 sequence (P00760 24-246): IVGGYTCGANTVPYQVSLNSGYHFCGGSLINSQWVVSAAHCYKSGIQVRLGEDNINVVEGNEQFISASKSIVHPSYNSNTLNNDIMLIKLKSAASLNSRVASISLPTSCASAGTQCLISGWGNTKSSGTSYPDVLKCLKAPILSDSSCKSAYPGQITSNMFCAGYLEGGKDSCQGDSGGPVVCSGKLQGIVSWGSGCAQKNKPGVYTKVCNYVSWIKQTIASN
Assay: Proteinase inhibitory activity (anti-arthritic)
Format: biochemical
Conditions: inhibition at 100 µg/mL

`O=C(O)Cc1ccccc1Nc1c(Cl)cccc1Cl` [Diclofenac Sodium] was tested, and the “Proteinase (%)” value was 50.82 ± 0.08 (Diclofenac Sodium) %.

Source: paper PMC12030678, “Investigations of In Vitro Anti-Acetylcholinesterase, Anti-Diabetic, Anti-Inflammatory, and Anti-Cancer Efficacy of Garden Cress (Lepidium sativum Linn.) Seed Extracts, as Well as In Vivo Biochemical and Hematological Assays” (Pharmaceutics, 2025)
